High-throughput results deposited in PubChem BioAssay by National Center for Advancing Translational Sciences (NCATS).
Most compounds without a hit are left out; they make up all but 2.1% or so of the library.
PTAP TSG101 blk = blocks PTAP/TSG101 interaction to inhibit HIV-1 budding; 340,000 tested, under 10 active; Fluorescence polarization, FITC-PTAP peptide / Tsg101 binding; Potency, µM (highest dose often 115 µM), without a hit: at the highest dose activity change, negative = inhibition, usual class: inhibitors; AID 493005; Q99816; active = well fitted inhibition curve with a large enough effect in the main read-out, with a control signal flat, not every such curve was filed as active; inconclusive = small, poorly fitted or top-dose-only effect, or effect the other way, or a change in a side signal; inactive = no such curve, though single readings can be large or run the other way; also: potency is read from the fitted curve at half-maximal effect; % of control where 0% means no effect
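Fluorescence polarization binding of Tsg101 binding domain (10 uM final) to FITC-labeled PTAP peptide (50 nM final) in HEPES pH 7.5 buffer with NaCl, Tween 20, EDTA, TCEP. Compounds added before peptide; binding 20 min at RT.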
A549 viability = kills or reduces viability of A549 cells in Nrf2 counter-screen. A549 ARE-Fluc cells, CellTiter-Fluor viability, 18-24 h. Potency, µM (series often up to 46 µM), for the others: top-dose activity change, negative = cytotoxicity, actives largely listed as inhibitors. hit rate 0.16% among 390,000; also: potency is read from the fitted curve at half-maximal effect; % is scaled to controls: 0 for no effect and ±100 for the full control effect
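Cytotoxicity counterscreen: CellTiter-Fluor fluorescence was measured in A549 ARE_Fluc cells after 18-24 h of compound exposure in a concentration series. The subsequent BugLite luminescent read reports ARE-luciferase activity.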
miR-21 reporter = miR-21 reporter, rising signal | HeLa miR-21 FLuc reporter, luciferase, 48 h | Potency, µM (doses to about 38.3 µM), inactives show at the top dose reporter change, positive = more light | 340,000 tested, under 10 active | AID 2288; active = well fitted rising curve with a large enough effect; inconclusive = small, poorly fitted or top-dose-only effect; inactive = no such curve, though single readings can be large or run the other way;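 note: % of control where 0% means no effect; miR-21 action dims this reporter so a rising signal means less miR-21 action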
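Using DMEM plus 10% FBS, HeLa miR-21-FLuc cells are incubated with test compounds (final up to about 40uM) for 48 hours; firefly luciferase signal is then imaged following reagent-mediated lysis.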
Nrf2 activator = activators of Nrf2 (ARE) signaling | hit rate 0.31% among 410,000 | Potency, µM (titrated, usually from 46.1 µM), for the others: at the highest dose activation, usual class: activators | AREc32 ARE-luciferase reporter (MCF7-derived line), luminescence, 24 h; also: potency is read from the fitted curve at half-maximal effect; % of control where 0% means no effect; nearly all actives have a fitted effect of over 65% in size
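For detection, Steady-Glo was added and plates sat 30 min at RT; before that, AREc32_Fluc cells grown overnight in OPTI-MEM/5% FBS had been treated with 23 nL compound for 24 hr at 37 deg C.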
Nrf2 block = Nrf2 pathway inhibition | A549 ARE-Fluc reporter, luciferase luminescence, 18-24 h | hit rate 2.1% among 360,000 | Potency, µM (highest dose often 46 µM), inactives show at the top dose activity change, negative = inhibition, hits mostly inhibitors; also: potency is read from the fitted curve at half-maximal effect; % is scaled to controls: 0 for no effect and ±100 for the full control effect; nearly all actives have a fitted effect of over 60% in size
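Two sequential reads on A549 ARE_Fluc cells exposed to compound for 18-24 h: a CellTiter-Fluor fluorescence read for viability, then a luciferase luminescence read for Nrf2/ARE activity.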
Glioma ERSR ind = induces the endoplasmic reticulum stress response in human glioma cells. U87-MG GRP78 promoter luciferase reporter, 16 h. Potency, µM, for inactives: top-dose activation, hits mostly activators. hit rate 0.02% among 420,000. AID 602332; also: potency is read from the fitted curve at half-maximal effect; series mostly up to about 76 µM; % of control where 0% means no effect; nearly all actives have a fitted effect of over 35% in size
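Stably transfected U87-MG human glioma cells carrying a GRP78-based luminescent sensor were seeded at 1000 cells/well, pin-dosed with compounds and incubated 16 h. Luciferase reagent was then added, and end-point luminescence was read after 10 min at room temperature.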
* marks the source's active call; other numbers are inactive results; ? = inconclusive; / = no result given; [ ] = remark or other dose. Unless noted, calls follow the shape of the dose curve; as a rule, active = well fitted curve in the direction sought with a large enough effect; inconclusive = small, poorly fitted or top-dose-only effect, or another doubt; inactive = no such curve, though single readings can be large; an effect the other way counts as inactive or inconclusive.

no. | SMILES | PTAP TSG101 blk | A549 viability | miR-21 reporter
1 | CCOc1cc(C2NC(=O)c3c(sc4c3CCN(C)C4)N2)ccc1OC(=O)c1ccccc1Cl (stereo not given) | / | -6.8% | -7.6%
2 | Cc1ccc(-c2nnc(-c3ccc(NC(=O)Cc4cccs4)cc3)o2)cc1 | 0.5% | 13µM* | -4.1%
3 | O=C(Cc1cccs1)Nc1cccc(-c2nnc(-c3ccco3)o2)c1 | -2.1% | -4.0% | -2.9%
4 | COc1cc2c(c(OC)c1OC)C(=O)C(=Cc1ccccc1)O2 | -1.0% | 6.0% | /
5 | COc1ccccc1C(=O)Oc1ccc2c(c1)O/C(=C\c1ccncc1)C2=O | ? | 4.2% | -5.1%
6 | COc1ccnc(Oc2cccc(C(F)(F)F)c2)c1C(=O)N/C=N/OCc1ccccc1F | -3.0% | -14.2% | -0.2%
7 | Cc1ccc2[nH]c(C)cc(=O)c2c1 | / | / | /
8 | Cc1ccc(-c2cc(=O)c3cc(C)ccc3[nH]2)cc1 | 0.1% | -5.7% | 18.1%
9 | O=C1CCc2cc(S(=O)(=O)NCc3ccccc3)ccc2N1 | / | -5.3% | /
10 | Cc1ccc(C)c(S(=O)(=O)NCc2ccc(C(=O)N3CCC(Cc4ccccc4)CC3)cc2)c1 | -3.1% | -10.6%[1.84 µM] | 18.3%
11 | Cc1ccc(C)c(S(=O)(=O)NCc2ccc(C(=O)N3CCN(C)CC3)cc2)c1 | -5.5% | -2.4% | -2.4%
12 | COc1cc(OC)c(/C=C/c2ccc3ccccc3[n+]2[O-])c(OC)c1 | / | / | /

no. | Nrf2 activator | Nrf2 block | Glioma ERSR ind
1 | -2.1% | 8.2µM* | -4.4%
2 | 0.1% | 9.2µM* | -2.6%
3 | 3.7% | -14.3% | -2.7%
4 | 15.8µM* | ? | 3.7%
5 | ? | -2.7% | -0.5%
6 | 2.1% | 20.6µM* | -1.8%
7 | / | / | 44.7µM*
8 | -1.5% | 15.3% | -10.4%
9 | / | 2.9% | /
10 | 2.1% | 16.4µM* | -5.2%
11 | -1.0% | 9.2% | -5.4%
12 | / | / | -2.3%

Next part:
no. | SMILES | PTAP TSG101 blk | A549 viability | miR-21 reporter
13 | COc1ccc(-c2csc(NC(=O)Cc3ccccc3F)n2)cc1OC | -1.1% | ? | 28.8%
14 | COC(=O)c1c(-c2ccc(Br)cc2)csc1NC(=O)Cc1ccc(OC)c(OC)c1 | -5.0% | 3.5% | 13.2%
15 | COc1ccc(CC(=O)Nc2nc(-c3ccc(OC)c(OC)c3)cs2)cc1OC | -1.3% | ? | 30.0%
16 | COC(=O)c1c(-c2ccc(C)cc2)csc1NC(=O)Cc1ccc(OC)c(OC)c1 | 2.2% | -2.1% | 10.2%
17 | COc1ccc(-c2csc(NC(=O)CS(=O)(=O)c3ccccc3)n2)cc1OC | / | / | /
18 | COc1ccc(-c2csc(NC(=O)CSCc3c(C)noc3C)n2)cc1OC | -3.1% | -7.9% | 8.7%
19 | COc1ccc(-n2c(CNC(=O)c3cccc4ccccc34)nnc2SC)cc1 | / | / | /
20 | COc1ccccc1CC(=O)Nc1nc(-c2ccc(F)c(F)c2)cs1 | -9.5% | -4.0% | 4.3%
21 | O=C1c2cccc(NCCNCCO)c2C(=O)c2cccc(NCCNCCO)c21 | -2.7% | 18.4µM* | /
22 | C[C@H](/C=C/[C@H](C)C(C)(C)O)[C@H]1CC[C@H]2/C(=C/C=C3C[C@@H](O)C[C@H](O)C3)CCC[C@]12C | / | / | /
23 | CC(C)(C)n1ncc2c(=O)n(Cc3ccc(Cl)c(SC(F)(F)F)c3)cnc21 | / | / | /
24 | COc1cc(/C=C/c2cc(OC(C)=O)c3ccccc3n2)c(OC(C)=O)c([N+](=O)[O-])c1 | -4.7% | 14.6µM* | 0.4%

no. | Nrf2 activator | Nrf2 block | Glioma ERSR ind
13 | 2.9% | 20.6µM* | -6.9%
14 | 2.4% | / | -5.2%
15 | 2.6% | 14.6µM* | -3.4%
16 | -0.4% | 18.4µM* | -0.4%
17 | -0.1% | / | -1.7%
18 | 2.5% | 23.1µM* | -1.0%
19 | / | / | -1.8%
20 | 4.2% | 23.1µM* | 1.1%
21 | -0.1% | 10.3µM* | -10.3%
22 | / | / | -2.8%
23 | / | / | -2.8%
24 | 3.4% | ? | -2.4%

Additional compounds.
no. | SMILES | PTAP TSG101 blk | A549 viability | miR-21 reporter
25 | COc1cc(/C=C/c2ccc3c([N+](=O)[O-])cccc3n2)ccc1OCC(=O)O | 0.6% | -11.0% | -2.7%
26 | Cc1ccc(N2C(=O)C(Cl)=C(N3CCCCCC3)C2=O)c(C)c1 | 2.5% | ? | -3.5%
27 | CCOc1ccc(NC(=O)CNC(=O)c2nn(-c3ccc(OC)c(OC)c3)c(=O)c3ccccc23)cc1 | -6.3% | -6.3% | -0.9%
28 | COc1ccc(-n2nc(C(=O)NCC(=O)Nc3cccc(Cl)c3)c3ccccc3c2=O)cc1OC | -0.8% | -17.9% | 7.3%
29 | CCSC(=O)N1CCN(/[N+]([O-])=N/Oc2ccc([N+](=O)[O-])cc2[N+](=O)[O-])CC1 | / | / | /
30 | Cc1cccc(C(=O)NC(=S)NNC(=O)c2ccc(Cl)cc2)c1 | -1.0% | -10.7% | 18.5%
31 | COc1cccc(CNC(=O)CSc2c3c(nc4ccc(Cl)cc24)CCCC3)c1OC | / | -19.6% | 21.9%
32 | COc1ccc(OC)c(CNC(=O)CSc2c3c(nc4cc(Cl)ccc24)CCCC3)c1 | / | -15.9% | 13.4%
33 | O=C(OCc1c(-c2ccccc2)ncc2ccccc12)c1cccs1 | -9.1% | ? | /
34 | O=C(OCc1c(-c2ccccc2)ncc2ccccc12)c1ccc(Br)cc1 | -2.2% | -6.1% | /
35 | COc1cccc(-c2ncc3ccccc3c2COC(=O)c2ccc(Br)cc2)c1 | 0.0% | 4.1% | /
36 | CCOC(=O)/C(C#N)=C1\Nc2ccccc2N=C1N(CC(C)C)CC(C)C | -5.5% | -3.8% | 1.4%

no. | Nrf2 activator | Nrf2 block | Glioma ERSR ind
25 | -1.2% | 0.0% | -3.8%
26 | -1.3% | 23.1µM* | -1.3%
27 | 0.1% | -9.7% | -2.1%
28 | 0.3% | 14.6µM* | -1.4%
29 | / | / | -11.3%
30 | -0.2%[9.22 µM] | ? | 35.5µM*
31 | 12.6µM* | ? | -10.2%
32 | ? | -15.9% | -9.7%
33 | ? | 16.4µM* | -0.4%
34 | -0.4% | 14.6µM* | 0.0%
35 | 3.4% | -19.0% | -5.7%
36 | -0.7% | 8.2% | -3.0%

The last two compounds of the section above come first, to join the parts:
no. | SMILES | PTAP TSG101 blk | A549 viability | miR-21 reporter
35 | COc1cccc(-c2ncc3ccccc3c2COC(=O)c2ccc(Br)cc2)c1 | 0.0% | 4.1% | /
36 | CCOC(=O)/C(C#N)=C1\Nc2ccccc2N=C1N(CC(C)C)CC(C)C | -5.5% | -3.8% | 1.4%
37 | CCOC(=O)/C(C#N)=C1/C=C(C)NC(c2ccccc2O)=N1 | -8.6% | -3.9%[1.84 µM] | 4.1%
38 | COc1cc(-c2cc(C)c3c(OC)ccc(OC)c3n2)cc2c1OCCN(C(=O)Cn1nc(C)cc1C)C2 | / | / | /
39 | c1ccc(Cn2c(-c3ccccc3)c[n+]3c2SCCC3)cc1 | -3.7% | 0.8% | 26.7%
40 | CCCCN1CC[C@H]2C=CC[C@@H](C(=O)NC3CCCCC3)[C@H]2C1=O | / | / | /
41 | Nc1c(C(=O)c2ccc(Br)s2)oc2ccccc12 | -3.9% | -1.8% | -29.1%
42 | NCCCCCc1nnc(SCc2ccccc2Cl)o1 | -5.3% | ? | 24.5%

no. | Nrf2 activator | Nrf2 block | Glioma ERSR ind
35 | 3.4% | -19.0% | -5.7%
36 | -0.7% | 8.2% | -3.0%
37 | 0.1% | 13µM* | -3.3%
38 | / | / | -5.3%
39 | 0.0% | 8.2µM* | -2.2%
40 | / | / | 0.8%
41 | 3.16µM* | -31.9% | -4.4%
42 | -2.2% | 13µM* | -14.9%

Some of these compounds in order of the miR-21 reporter value, smallest number first.
cpd	Compound	miR-21 reporter
41	Nc1c(C(=O)c2ccc(Br)s2)oc2ccccc12	-29.1%
37	CCOC(=O)/C(C#N)=C1/C=C(C)NC(c2ccccc2O)=N1	4.1%
42	NCCCCCc1nnc(SCc2ccccc2Cl)o1	24.5%
39	c1ccc(Cn2c(-c3ccccc3)c[n+]3c2SCCC3)cc1	26.7%
